By UniProt entry, the sequences of proteins in these tests, tags left out. Where a name states a change or a piece, a line headed by the entry shows the natural chain unless it says otherwise.
UniProt P35348: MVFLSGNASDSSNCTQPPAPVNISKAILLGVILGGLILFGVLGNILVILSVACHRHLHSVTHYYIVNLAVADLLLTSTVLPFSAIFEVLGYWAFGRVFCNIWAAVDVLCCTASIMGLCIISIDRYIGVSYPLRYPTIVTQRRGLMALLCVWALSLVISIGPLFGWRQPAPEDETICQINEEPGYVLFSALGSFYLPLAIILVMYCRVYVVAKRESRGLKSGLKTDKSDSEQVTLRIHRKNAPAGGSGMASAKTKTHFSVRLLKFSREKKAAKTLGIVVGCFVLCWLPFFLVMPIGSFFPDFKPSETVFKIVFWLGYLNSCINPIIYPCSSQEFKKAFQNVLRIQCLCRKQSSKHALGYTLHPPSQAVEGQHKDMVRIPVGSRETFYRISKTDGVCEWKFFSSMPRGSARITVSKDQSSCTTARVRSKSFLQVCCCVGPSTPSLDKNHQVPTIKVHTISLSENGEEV
UniProt P35368, whole entry, looked up: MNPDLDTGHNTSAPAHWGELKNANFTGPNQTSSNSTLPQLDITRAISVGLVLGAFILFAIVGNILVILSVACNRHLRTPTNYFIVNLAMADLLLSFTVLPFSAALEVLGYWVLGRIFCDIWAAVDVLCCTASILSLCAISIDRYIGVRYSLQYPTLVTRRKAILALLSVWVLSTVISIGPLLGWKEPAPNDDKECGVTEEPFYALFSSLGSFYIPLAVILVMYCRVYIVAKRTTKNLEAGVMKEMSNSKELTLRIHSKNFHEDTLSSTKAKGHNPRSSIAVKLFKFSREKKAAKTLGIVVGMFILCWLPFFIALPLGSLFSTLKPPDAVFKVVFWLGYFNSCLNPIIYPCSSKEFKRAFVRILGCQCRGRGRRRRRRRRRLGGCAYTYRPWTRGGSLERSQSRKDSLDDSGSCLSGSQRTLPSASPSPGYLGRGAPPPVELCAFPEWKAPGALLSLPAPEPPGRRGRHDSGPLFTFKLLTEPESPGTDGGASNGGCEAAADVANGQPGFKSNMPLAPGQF
UniProt P18089, whole entry, looked up: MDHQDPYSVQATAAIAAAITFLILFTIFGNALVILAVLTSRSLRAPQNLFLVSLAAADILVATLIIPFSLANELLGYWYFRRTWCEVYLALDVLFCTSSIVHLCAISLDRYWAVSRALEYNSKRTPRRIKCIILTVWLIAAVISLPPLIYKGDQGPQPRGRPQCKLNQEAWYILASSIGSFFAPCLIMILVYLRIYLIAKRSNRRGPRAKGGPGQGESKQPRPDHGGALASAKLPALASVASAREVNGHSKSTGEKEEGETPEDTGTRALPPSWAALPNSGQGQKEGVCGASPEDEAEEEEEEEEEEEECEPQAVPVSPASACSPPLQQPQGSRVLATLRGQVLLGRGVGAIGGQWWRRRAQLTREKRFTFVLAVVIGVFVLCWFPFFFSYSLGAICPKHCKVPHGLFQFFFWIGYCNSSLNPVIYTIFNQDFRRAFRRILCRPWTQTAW
UniProt P08913, whole entry, looked up: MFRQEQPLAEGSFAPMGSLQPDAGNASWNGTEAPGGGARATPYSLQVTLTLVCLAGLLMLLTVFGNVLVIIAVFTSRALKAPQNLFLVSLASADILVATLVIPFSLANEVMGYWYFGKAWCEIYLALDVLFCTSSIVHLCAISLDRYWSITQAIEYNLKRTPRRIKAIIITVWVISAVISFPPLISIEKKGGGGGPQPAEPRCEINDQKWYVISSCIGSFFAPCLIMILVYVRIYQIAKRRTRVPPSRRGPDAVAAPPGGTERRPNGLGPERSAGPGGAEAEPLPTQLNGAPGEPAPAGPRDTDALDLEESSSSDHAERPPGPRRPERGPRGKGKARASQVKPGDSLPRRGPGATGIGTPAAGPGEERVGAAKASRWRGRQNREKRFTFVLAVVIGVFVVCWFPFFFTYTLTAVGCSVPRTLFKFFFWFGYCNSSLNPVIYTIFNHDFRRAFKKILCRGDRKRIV
UniProt P18825, whole entry, looked up: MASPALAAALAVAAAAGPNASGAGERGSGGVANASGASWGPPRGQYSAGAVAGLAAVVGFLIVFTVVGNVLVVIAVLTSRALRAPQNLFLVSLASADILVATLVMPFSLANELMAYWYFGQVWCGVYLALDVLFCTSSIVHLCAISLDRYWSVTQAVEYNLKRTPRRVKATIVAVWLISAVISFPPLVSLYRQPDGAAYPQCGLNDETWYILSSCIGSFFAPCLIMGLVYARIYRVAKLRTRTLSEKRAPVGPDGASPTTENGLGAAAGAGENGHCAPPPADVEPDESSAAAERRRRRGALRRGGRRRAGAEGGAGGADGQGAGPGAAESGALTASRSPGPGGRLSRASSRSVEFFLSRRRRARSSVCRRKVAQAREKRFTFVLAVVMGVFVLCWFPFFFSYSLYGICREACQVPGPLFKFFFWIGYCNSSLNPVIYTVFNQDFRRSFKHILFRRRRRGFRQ

According to patent US8080570B2, “α2B and α2C agonists” (Allergan, Inc., priority 2008, dated 2011):

Columns and labels:
Type in all cases: cell-based
[1] = target: α1A (UniProt P35348); assay: FLIPR intracellular calcium assay, α1A; conditions: read-out: α1A potency (EC50), fluo-3 calcium, NA = not active
[2] = target: α1B (UniProt P35368); assay: FLIPR intracellular calcium assay, α1B; conditions: read-out: α1B potency (EC50), fluo-3 calcium, NA = not active
[3] = target: α2B (Homo sapiens, UniProt P18089); assay: FLIPR intracellular calcium assay, α2B; conditions: read-out: α2B potency (EC50), fluo-3 calcium, NA = not active
[4] = target: α2A (Homo sapiens, UniProt P08913); assay: FLIPR intracellular calcium assay, α2A; conditions: read-out: α2A potency (EC50), fluo-3 calcium, NA = not active
[5] = target: α2C (Homo sapiens, UniProt P18825); assay: FLIPR intracellular calcium assay, α2C; conditions: fluo-3 calcium, NA = not active

C#CC(NC1=NCCO1)c1ccccc1 (centres unmarked)
EC50 [1]: 0.58 nM
EC50 [2]: 17.5 nM
EC50 [3]: 1.12 nM
EC50 [4]: 0.04 nM
α2C potency (EC50) [5]: Potent (0.82)
